{
  "sequences": {"note": "Sequences of proteins named here, by UniProt entry; tags and fusion partners are left off.", "UniProt P41143, whole entry": "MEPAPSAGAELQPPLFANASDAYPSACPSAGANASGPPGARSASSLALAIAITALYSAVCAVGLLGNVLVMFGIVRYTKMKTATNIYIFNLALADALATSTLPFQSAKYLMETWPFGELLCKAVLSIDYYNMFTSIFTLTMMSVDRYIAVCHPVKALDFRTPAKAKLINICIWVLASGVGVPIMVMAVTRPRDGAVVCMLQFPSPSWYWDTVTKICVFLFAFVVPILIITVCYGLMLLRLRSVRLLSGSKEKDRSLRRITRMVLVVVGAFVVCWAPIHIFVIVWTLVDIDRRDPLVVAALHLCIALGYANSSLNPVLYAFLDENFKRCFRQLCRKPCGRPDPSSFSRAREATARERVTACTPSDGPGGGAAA"},
  "source": "patent US6740641B2",
  "about": "(priority 2001, dated 2004)",
  "molecular_target": "T1, recombinant delta opiod receptor expressed in CHO-K1 cells (Homo sapiens, UniProt P41143)",
  "T1 construct": "purchased Receptor Biology Inc., Beltsville, Md; host or cells: CHO-K1",
  "test": "biochemical",
  "type": "binding",
  "data": [
    {"smiles": "CN1CC[C@]23c4c5ccc(O)c4O[C@H]2[C@@H](O)CC[C@H]3[C@H]1C5", "note": "[Dihydromorphine, reference compound]", "values": [
      {"measurement": "Ki", "result": 212, "unit": "nM"}
    ]}
  ]
}
